Source: PubChem
In the library only some 2.2% were active in any assay of this set; here they are far more common.
Nrf2 block: blocks Nrf2 signaling; AID 504444; Potency, µM (doses to about 46 µM), without a hit: at the highest dose activity change, negative = inhibition, hits mostly inhibitors; hit rate 2.1% among 360,000; A549 ARE-Fluc reporter, luciferase luminescence, 18-24 h; note: potency is the fitted concentration of half-maximal effect; % is set by controls: 0 for no effect and ±100 for the full control effect; nearly all actives have a fitted effect of over 60% in size
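Nrf2 function is reported as luminescence of an ARE-controlled luciferase in A549 cells. Compounds were tested at several concentrations, and a CellTiter-Fluor read on the same wells flagged cytotoxicity.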
Nrf2 activator: activates Nrf2 signaling | AREc32 ARE-luciferase reporter (MCF7-derived line), luminescence, 24 h | Potency, µM (series often up to 46.1 µM), without a hit: at the highest dose activation, most hits filed as activators | hit rate 0.31% among 410,000 | AID 624171; note: potency is the fitted concentration of half-maximal effect; % of control where 0% means no effect; nearly all actives have a fitted effect of over 65% in size
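Cells of the AREc32 ARE-luciferase line are plated in OPTI-MEM containing 5% FBS and left overnight at 37 deg C. Compounds are pinned in, incubation continues 24 hr, and firefly luciferase signal is then measured.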
PI4K2A inh: blocks human PI4K2A kinase activity. purified PI4K2A, ADP-Glo luminescence, 1 h; active compounds read low. activity change, negative = inhibition, % at 76.9 µM. Q9BTU6. hit rate 0.13% among 420,000. AID 1346378; in the data active = activity change below about -50%; inconclusive = mostly about -30% to -49%;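 note: -100% = wells without enzyme as full effect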
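Compounds are screened against recombinant PI4K2A using PI as substrate and ATP, the latter dispensed at 300 microM. Reactions run one hour at ambient temperature before ADP-Glo detection; full inhibition defined by wells lacking enzyme.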
miR-21 reporter: miR-21 reporter, rising signal; Potency, µM (top dose mostly 38.3 µM), for the others: at the highest dose reporter change, positive = more light; 340,000 tested, under 10 active; HeLa miR-21 FLuc reporter, luciferase, 48 h; active = well fitted rising curve with a large enough effect; inconclusive = small, poorly fitted or top-dose-only effect; inactive = no such curve, though single readings can be large or run the other way;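 note: % of control where 0% means no effect; miR-21 action dims this reporter so a rising signal means less miR-21 action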
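Using DMEM plus 10% FBS, HeLa miR-21-FLuc cells are incubated with test compounds (final up to about 40uM) for 48 hours; firefly luciferase signal is then imaged following reagent-mediated lysis.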
A549 viability: counter-screen for Nrf2 inhibitors: cytotoxicity in A549 cells | A549 ARE-Fluc cells, CellTiter-Fluor viability, 18-24 h | hit rate 0.16% among 390,000 | Potency, µM (titrated, usually from 46 µM), for the others: at the top dose activity change, negative = cytotoxicity, actives largely listed as inhibitors; note: potency is the fitted concentration of half-maximal effect; % is set by controls: 0 for no effect and ±100 for the full control effect
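A549 ARE-Fluc cells in 5% FBS OPTI-MEM, 5000 cells/well, rested 2 h then exposed to compounds in concentration-response for 18-24 h at 37 °C. Viability by CellTiter-Fluor fluorescence (Ex 405/Em 525) after 30 min; luciferase luminescence (BugLite, 15 min, RT) read afterwards.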
GALK inh: galactokinase (human) inhibition. AID 1868. Purified GALK, Kinase-Glo residual ATP luminescence. P51570. Potency, µM (titrated, usually from 57.5 µM), for inactives: at the highest dose activity change, negative = inhibition, hits mostly inhibitors. hit rate 0.007% among 270,000; note: potency is the fitted concentration of half-maximal effect; % is set by controls: 0 for no effect and ±100 for the full control effect
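5 nM enzyme, 35 uM ATP, 100 uM galactose, 20 mM HEPES pH8.0, 5 mM MgCl2; 1 h RT; residual ATP by Kinase-Glo Plus luminescence, qHTS format.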
Numbers without * were called inactive; u = inconclusive; x = not tested or not shown. Unless noted, calls come from the whole dose curve; as a rule, active = well fitted curve in the direction sought with a large enough effect; inconclusive = small, poorly fitted or top-dose-only effect, or another doubt; inactive = no such curve, though single readings can be large; an effect the other way counts as inactive or inconclusive.

SMILES	Nrf2 block	Nrf2 activator	PI4K2A inh	miR-21 reporter	A549 viability	GALK inh
O=C(CNC(=O)c1ccncc1)OC(C(=O)Nc1cc(C(F)(F)F)ccc1Cl)c1ccccc1 (stereo not drawn)	u	x	x	x	16%	x
CCC(CC)NC(=O)O[C@H]1CC[C@@]23CCCN2C(=O)CCC[C@H]3[C@H]1C	x	x	2	x	x	x
Cc1ccc(NC(=O)C(Nc2ccccc2)c2ccccc2)cc1 (stereo not drawn)	-1%	4%	-2	-16%	5%	-3%
Cc1ccc(NC(=O)C(C)c2ccc(-c3ccccc3)c(F)c2)cc1 (stereo not drawn)	15µM*	0%	-2	18%	u	1%
Cc1cccc(C)c1-n1nnnc1C1c2ccccc2C(=O)N1CCc1ccccc1F (stereo not drawn)	x	13µM*	-2	x	x	x
CC(C)(C)c1ccc(-c2nnc3sc(COc4ccccc4)nn23)cc1	x	x	-1	x	x	x
Cc1oc(-c2ccc(Cl)cc2)nc1CS(=O)CC(=O)N1CCN(c2cccc(C(F)(F)F)c2)CC1 (stereo not drawn)	x	-4%	4	27%	-14%	x
Cc1ccc(-c2nc(CS(=O)CC(=O)N3CCN(c4cccc(Cl)c4)CC3)c(C)o2)cc1 (stereo not drawn)	23µM*	3%	-2	u	u	x
O=S(=O)(c1ccc2c(c1)nc(COc1ccc(Cl)cc1)n2CC1CCCO1)N1CCOCC1 (stereo not drawn)	10µM*	2%	-10	6%	-19%	-1%
COc1ccc2nc(-c3ccc(F)cc3)sc2c1	u	5%	-18	x	8%	x
COc1ccc2nc(-c3ccc(N(C)C)cc3)sc2c1	0.33µM*	x	x	x	u	x
C[C@@H]1CCN(C2CC2)S(=O)(=O)c2ccc(N3CCC[C@H]3CO)cc2O1	x	x	-2	x	x	x
COc1ccc(NC(=O)CSc2ncnc3scc(-c4ccc(C)cc4)c23)cc1OC	x	x	2	x	x	x
CCOC(=O)c1c(-c2cccs2)csc1NC(=O)CN(CC)CC	18µM*	0%	1	-5%	u	x
CCN(CC)c1ccc(N)cc1	u	-1%	0	x	-20%	x
Nc1ccc(N(CCO)CCO)cc1	-18%	0%	-52*	-2%	-1%	-2%
COc1ccc(-c2nc3cccc(OC)c3c(=O)n2Cc2ccccc2)cc1COc1ccc(NC(C)=O)cc1	-15%	x	x	x	-13%	x
C/C(=N\Nc1ccc2nncn2n1)c1ccc(Cl)s1	-5%	7.9µM*	-4	-7%	0%	1%
C/C(=N\NC(N)=S)c1ccc(Cl)s1	u	6%	-5	26%	1%	1%
O=C(OCC#CCSc1nnc(-c2ccc(F)cc2)o1)c1ccc(F)cc1	u	x	-3	x	-1%	x

2 entries picked at random from the list so far, as already listed:
SMILES	Nrf2 block	Nrf2 activator	PI4K2A inh	miR-21 reporter	A549 viability	GALK inh
Cc1oc(-c2ccc(Cl)cc2)nc1CS(=O)CC(=O)N1CCN(c2cccc(C(F)(F)F)c2)CC1 (stereo not drawn)	x	-4%	4	27%	-14%	x
C/C(=N\Nc1ccc2nncn2n1)c1ccc(Cl)s1	-5%	7.9µM*	-4	-7%	0%	1%

(listing goes on)
SMILES	Nrf2 block	Nrf2 activator	PI4K2A inh	miR-21 reporter	A549 viability	GALK inh
CCc1cccc(C)c1NC(=O)CSc1nnc(CCCOc2ccc(Cl)cc2Cl)n1C	16µM*	4%	-5	16%	-14%	x
CCN(CC)c1ccc(C=Nn2c(C)nnc2C)cc1	x	x	-5	x	x	x
N#C/C(=N\Nc1cccc([N+](=O)[O-])c1)C(=O)c1ccc(Br)cc1	9.2µM*	14%	2	20%	-22%	-9%
N#C/C(=N\Nc1ccc([N+](=O)[O-])cc1)C(N)=S	u	2%	-17	10%	18µM*	x
O=C(O)c1ccc(N=NNc2cccc([N+](=O)[O-])c2)cc1	u	11%	-11	-96%	1%	-2%
CC(=O)Nc1ccc(C(CCCc2ccccc2)C2=CCCCC2)cc1 (stereo not drawn)	x	x	-1	x	x	x
O=C(Nc1ccc(Cl)c(Cl)c1)c1cccc2c1-c1ccccc1C2=O	x	x	4	x	x	x
CCOc1ccccc1NC(=O)c1cnc(N2CCOCC2)c2ccccc12	x	5%	0	-3%	-2%	x
CC(C)NC(=O)c1cnc(N2CCN(c3ccccn3)CC2)c2ccccc12	u	0%	5	16%	-8%	1%
CCc1ccc(NC(=O)c2cnc(N3CCN(c4ccccn4)CC3)c3ccccc23)cc1	12µM*	0%	-2	18%	u	-1%
CCN1CCN(c2ncc(C(=O)Nc3ccccc3C(=O)OC)c3ccccc23)CC1	4%	0%	7	-3%	18µM*	-1%
Fc1ccc(Nc2nnc(C(F)(F)F)s2)cc1Cl	u	10%	3	u	-4%	-2%
Fc1ccc(Nc2cncc(-c3ccsc3)c2)cc1Cl	x	13%	-50*	x	x	x
O=C(COc1ccc2ccccc2c1)Nc1ccc(Cc2ccncc2)cc1	15µM*	0%	3	0%	-27%	-5%
O=C(O)Cc1ccc(NC(=O)COc2ccc3ccccc3c2)cc1	-5%	-1%	-3	-5%	11%	0%
O=C(NCc1cccnc1)c1ccc(COc2ccccc2Br)o1	-4%	3%	0	18%	-1%	0%
O=C(Nc1cccnc1)c1ccc(COc2ccccc2Br)o1	6.5µM*	0%	1	6%	-13%	0%
O=C(Nc1ccc(Cn2cccn2)cc1)c1ccc(COc2ccccc2Br)cc1	9.2µM*	1%	-3	6%	u	-2%
O=C(Nc1nc2ccccc2n1CCN1CCOCC1)c1ccc(Cn2cc([N+](=O)[O-])cn2)o1	-5%	6%	1	-3%	10%	4%
O=C(Nc1nc2ccccc2n1CCN1CCOCC1)c1ccc(COc2ccccc2Br)o1	13µM*	3%	3	-6%	-16%	1%
CCn1nc(C)c(CNC(=O)c2cc(COc3ccc(C)nc3)on2)c1C	23µM*	0%	5	5%	-3%	2%
CCn1nc(C)c(CNC(=O)c2cc(COc3ccc(F)cc3Cl)on2)c1C	-92%	3%	9	19%	-7%	-3%
Cc1c(C(=O)N2CCCC2)sc(NC(=O)c2cccc(Cl)c2)c1C#N	u	3%	4	-1%	-22%	-12%
Cc1cccc(C(=O)Nc2sc(C(=O)N3CCCC3)c(C)c2C#N)c1	-29%	0%	-75*	1%	-3%	-4%
CCCCCCNC(=O)C1CSCCS(=O)(=O)N1Cc1ccc(F)cc1 (stereo not drawn)	x	x	-2	x	x	x
COc1ccc(/C=N\NC(=O)COc2ccc(C(C)(C)C)cc2)cc1Cn1nc(C)cc1C	x	14%	-12	0%	15µM*	-12%
CCOC(=O)N1C(=O)C[C@](Sc2ccc(OC)cc2)(C(=O)N(C)C)[C@H]1c1ccc(OC)cc1	x	x	4	x	x	x
O=C(CS(=O)Cc1ccco1)NC/C=C\COc1cc(CN2CCCCC2)ccn1 (stereo not drawn)	x	x	-2	x	x	x

5 of the compounds above, with bars between the fields.
Compound | Nrf2 block | Nrf2 activator | PI4K2A inh | miR-21 reporter | A549 viability | GALK inh
COc1ccc(/C=N\NC(=O)COc2ccc(C(C)(C)C)cc2)cc1Cn1nc(C)cc1C | x | 14% | -12 | 0% | 15µM* | -12%
CCn1nc(C)c(CNC(=O)c2cc(COc3ccc(C)nc3)on2)c1C | 23µM* | 0% | 5 | 5% | -3% | 2%
O=C(CS(=O)Cc1ccco1)NC/C=C\COc1cc(CN2CCCCC2)ccn1 (stereo not drawn) | x | x | -2 | x | x | x
CCOC(=O)N1C(=O)C[C@](Sc2ccc(OC)cc2)(C(=O)N(C)C)[C@H]1c1ccc(OC)cc1 | x | x | 4 | x | x | x
Cc1cccc(C(=O)Nc2sc(C(=O)N3CCCC3)c(C)c2C#N)c1 | -29% | 0% | -75* | 1% | -3% | -4%
